Measured values as given in patent US4514403A, “Hydrouracil compounds” (Yoshitomi Pharmaceutical Industries Ltd., priority 1980, dated 1985).
Where a name gives a salt, the structure may show the parent alone.

Assays:
[1] = Hot plate test; details: Rattus norvegicus, sc, read-out: Hot Plate Test ED50
[2] = Mouse jumping test; details: administration at a lethal dose
[3] = in vivo; details: rat
[4] = Analgesic activity (overall)
[5] = Tolerance test; assay type: in vivo; details: continuous administration
[6] = system: central nervous system; test: Activity on central nervous system; details: in vivo
[7] = Electric stimuli test; details: Mus musculus, read-out: Electric Stimuli Test ED50
[8] = Tooth pulp nociception test
[9] = Antagonism by levallorphan in electric stimuli test; details: electric stimuli test in mice; levallorphan (narcotic antagonist)
[10] = Phenylquinone writhing test; details: for ED50: Mus musculus, read-out: Phenylquinone Writhing Test ED50
[11] = AgNO3 arthritis test; details: for ED50: Rattus norvegicus, sc, read-out: AgNO3 Arthritis Test ED50
[12] = system: evoked potentials in central nervous system; test: Effect on the various evoked potentials in central nervous system; assay type: in vivo, Male Wistar rats; design: key to Amplitude of Evoked Responses, VP-COR / Amplitude of Evoked Responses, HIP-AMY / Amplitude of Evoked Responses, HIP-SEP: -: No change; --: No change; (+): Levallorphan antagonism; (-): Levallorphan antagonism
Experimental: Male Wistar rats, weighing 300-350 g, were used under ethyl ether anesthesia. The trachea and femoral vein were cannulated for artificial respiration and drug injection, respectively. Immobilization of the rat was maintained by gallamine thioethiodide (10 mg/kg) given intravenously every one hours. All wound edges were infiltration with carbocaine hydrochloride. The experiments began after at least 2 hours had elapsed from discontinuance of ether anesthesia. The COR (somatosensory cortex) evoked potentials by VP (neucleus ventralis posterior thalamus) stimulation (VP - COR evoked potential) were recorded from somatosensory cortex, through a silver electrode applied directly to the cortex. In order to record VP and MRF (midbrain reticular formation) evoked potentials by sciatic nerve stimulation or AMY (amygdala) and SEP (septum) evoked potentials by HIP (hippocampus) stimulation, bipolar stainless steel electrodes were stereotaxically placed into the VP, MRF, AMY, SEP and HIP. The stimuli were delivered to various sites every 2 seconds from a stimulation and consisted of 0.1 msec rectangular pulses (twice threshold intensity). The evoked responses were visualized on an oscilloscope. All records were made up of 20 superimposed tracings.

[13] = rat, in vivo
[14] = Bradykinin nociception test; details: for ED50: Rattus norvegicus, read-out: Bradykinin Nociception Test ED50
[15] = rat, in vivo; remark: listed apart in the source
[16] = calculated from inhibition (%) in a low dose

## CN1C(=O)CCN(C2CCN(CC=Cc3ccccc3)CC2)C1=O [Test compound A, 1-(1-cinnamyl-4-piperidyl)-3-methyl-hydrouracil hydrochloride]
[1]
  ED50: 10 mg/kg
[2]
  jumping symptom: did not cause any jumping symptom
[3]; ip
  LD50: 150 mg/kg
[3]; po
  LD50: 450 mg/kg
[3]; sc
  LD50: 300 mg/kg
[4]
  analgesic activity in a low dose: stronger than tramadol and pentazocine
[5]
  cross tolerance against codeine: did not show a cross tolerance against codeine
  tolerance (decrease of effects): did not cause a significant decrease of effects
[6]
  muscle relaxant activity: weak
  reserpine potentiating activity: weak
  suppression of spontaneous locomotor activity: weak
[7]; po
  ED50: 200 mg/kg
[7]; sc
  ED50: 23 mg/kg
[8]; calculated from ED50
  Relative potency (Test compound A = 1), Tooth Pulp Nociception Test: 1
[8]; [16]
  Relative potency (Test compound A = 1), Tooth Pulp Nociception Test: 1
[8]; rabbits, 2.5 mg/kg i.v.
  increasing rate in threshold: 75%
[9]
  Influence of levallorphan on analgesic activity: did not influence the analgesic activity
[10]; po
  ED50: 17 mg/kg
[10]; sc
  ED50: 1 mg/kg
[10]; calculated from ED50
  Relative potency (Test compound A = 1), Phenylquinone Writhing Test: 1
[10]; [16]
  Relative potency (Test compound A = 1), Phenylquinone Writhing Test: 1
[10]; mice, 0.5 mg/kg s.c.
  Inhibition (%) of Occurrence of Pain: 48%
[11]
  ED50: 7 mg/kg
[11]; calculated from ED50
  Relative potency (Test compound A = 1), AgNO3 Arthritis Test: 1
[11]; [16]
  Relative potency (Test compound A = 1), AgNO3 Arthritis Test: 1
[11]; rats, 5 mg/kg s.c.
  Inhibition (%) of Occurrence of Pain: 42%
[12]
  levallorphan antagonism of VP - COR response: levallorphan did not antagonize the response
[12]; 5 mg/kg i.v.
  Amplitude of Evoked Responses, HIP-AMY: --
  Amplitude of Evoked Responses, HIP-SEP: --
  Amplitude of Evoked Responses, VP-COR: --
[12]; 10 mg/kg i.v.
  Amplitude of Evoked Responses, HIP-AMY: --
  Amplitude of Evoked Responses, HIP-SEP: --
[12]; 25 mg/kg i.v.
  Amplitude of Evoked Responses, HIP-AMY: --
  Amplitude of Evoked Responses, HIP-SEP: --
[12]; i.v.
  HIP - AMY evoked potential: no effect
  HIP - SEP evoked potential: no effect
  amplitude of the VP - COR evoked potential: reduced the amplitude of the VP - COR evoked potential
[13]
  body weight reduction: not reduced
[14]; po
  ED50: 40 mg/kg
[14]; sc
  ED50: 4 mg/kg
[14]; calculated from ED50
  Relative potency (Test compound A = 1), Bradykinin Nociception Test: 1
[14]; [16]
  Relative potency (Test compound A = 1), Bradykinin Nociception Test: 1
[14]; rats, 2.5 mg/kg s.c.
  Inhibition (%) of Occurrence of Pain: 38%
[15]
  compensatory adjustment against codeine: had not compensatory adjustment against codeine

## CN1C(=O)CCN(C2CCN(CCc3ccccc3)CC2)C1=O [Test compound C, 1-(1-phenethyl-4-piperidyl)-3-methyl-hydrouracil hydrochloride]
[1]
  ED50: 10 mg/kg
[2]
  jumping symptom: did not cause any jumping symptom
[3]; ip
  LD50: 150 mg/kg
[3]; po
  LD50: 900 mg/kg
[3]; sc
  LD50: 700 mg/kg
[5]
  cross tolerance against codeine: did not show a cross tolerance against codeine
  tolerance (decrease of effects): did not cause a significant decrease of effects
[7]; po
  ED50: 220 mg/kg
[7]; sc
  ED50: 50 mg/kg
[9]
  Influence of levallorphan on analgesic activity: did not influence the analgesic activity
[10]; po
  ED50: 5 mg/kg
[10]; sc
  ED50: 1.5 mg/kg
[11]
  ED50: 45 mg/kg
[12]; 5 mg/kg i.v.
  Amplitude of Evoked Responses, HIP-AMY: --
  Amplitude of Evoked Responses, HIP-SEP: --
  Amplitude of Evoked Responses, VP-COR: --
[12]; 10 mg/kg i.v.
  Amplitude of Evoked Responses, HIP-AMY: --
  Amplitude of Evoked Responses, HIP-SEP: --
[12]; 25 mg/kg i.v.
  Amplitude of Evoked Responses, HIP-AMY: --
  Amplitude of Evoked Responses, HIP-SEP: --
[13]
  body weight reduction: not reduced
[14]; po
  ED50: 400 mg/kg
[14]; sc
  ED50: 70 mg/kg
[15]
  compensatory adjustment against codeine: had not compensatory adjustment against codeine
